Results as given in PubChem BioAssay AID1345082 (National Center for Advancing Translational Sciences (NCATS), 2018).
This is a selection; strong and weak results do not stand in their true shares. Inconclusive results are not listed. Activity calls are given as the source filed them. Calls come from the whole dose curve; as a rule, active = well fitted inhibition curve with a large enough effect; inconclusive = small, poorly fitted or top-dose-only effect; inactive = no such curve, though single readings can be large or run the other way.

assay: Cytotoxic Profiling in NIH 3T3 Cell Line of Diverse Libraries Using Quantitative High-Throughput Screening; conditions: NIH 3T3 viability, CellTiter-Glo ATP luminescence, 48-72 h; at 174 µM (top of the series) unless noted; note: nearly all actives have a fitted effect of over 55% in size
Excerpt: Cell-based phenotypic screening is a commonly used approach to discover biological pathways, novel drug targets, chemical probes and high-quality hit-to-lead molecules. Many hits identified from high-throughput screening campaign are ruled out through a series of follow-up potency, selectivity/specificity, and cytotoxicity assays. Prioritization of molecules with little or no cytotoxicity for a more in-depth downstream evaluation influence the future direction of projects, so cytotoxicity profiling of the screening libraries at early stage is essential for increasing the likelihood of candidate success. In this study, we analyzed results from a cell-based cytotoxicity screening campaign, comprising nearly 10,000 compounds in NCATS annotated libraries, and over 100,000 compounds in a diversity library, evaluated in four normal cell lines (HEK 293, NIH 3T3, CRL-7250 and HaCat) and a cancer cell line (KB 3-1, a HeLa subline) with overall screening outcomes, hit rates, pan-activity and selectivity. […]
NIH 3T3 cells were seeded into white 1536-well plates using a Multidrop Combi peristaltic dispenser (ThermoFisher, Waltham, MA) at a density of 400 cells/well in 5 uL of medium respectively. […] Plates were left at room temperature for 10 min before imaging the ATP-coupled luminescence using a ViewLux microplate imager (PerkinElmer, Waltham, MA).
% is set by controls: 0 for no effect and ±100 for the full control effect.

SMILES	activity change, negative = cytotoxicity
CNCc1cc2ccccc2o1	inactive: -5.69% [at 138 µM]
CNCc1cccc(C)n1	inactive: 1.37%
